Source: patent US20260199492A1, “PSD-95 DOMAIN INHIBITOR, AND PREPARATION METHOD THEREFOR AND USE THEREOF” (SHENZHEN SALUBRIS PHARMACEUTICALS CO., LTD, priority 2023, published 2026)

Protein sequences, listed by entry. Tags and fused reporters are not part of them. Residues count along the entry.
UniProt P78352, 61-249 limits assumed: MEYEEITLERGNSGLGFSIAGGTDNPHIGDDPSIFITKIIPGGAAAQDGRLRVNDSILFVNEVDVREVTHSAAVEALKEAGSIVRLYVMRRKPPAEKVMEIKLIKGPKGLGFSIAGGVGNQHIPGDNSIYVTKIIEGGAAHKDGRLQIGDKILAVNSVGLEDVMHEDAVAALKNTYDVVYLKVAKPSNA

Columns and labels:
[1] = molecular target: T1, PDZ1-2 of PSD95 (Homo sapiens, UniProt P78352); assay: Fluorescence polarization competition binding assay of PDZ1-2 with dimeric 5-FAM labeled probe; conditions: probe 0.5 nM fixed, increasing PDZ1-2; TBS buffer pH 7.6; read-out: Kd of probe for PDZ1-2 (saturation binding)
[2] = molecular target: T1, PDZ1-2 of PSD95; assay: fluorescence polarization saturation binding, probe 0.5 nM, PDZ1-2 titrated
[3] = molecular target: T1, PDZ1-2 of PSD95; assay: Fluorescence polarization competition binding assay of PDZ1-2 with probe 5-FAM-NA-1; conditions: read-out: IC50, binding assay of PDZ1-2 with probe (5-FAM-NA-1); PDZ1-2 2500 nM; probe 5-FAM-NA-1 0.25 nM; TBS buffer pH 7.6
[4] = In vitro plasma stability experiment (compounds), without or with tPA; conditions: human plasma, 37° C., initial concentration 10 μM; for With tPA T1/2: with rt-PA 0.135 mg/mL
[5] = Toxicological experiment: serum UREA and CREA after 5 days of i.v. dosing; type: in vivo; conditions: male SD rats, 30 mg/kg i.v. once daily for 5 days, serum 2 h after dosing on day 5
Experimental: The compounds of Examples 1-8 were accurately weighed into suitable EP tubes, and the vehicle (saline) was added to formulate a solution of a concentration of 15 mg/mL. The solution was filtered using a 0.2 μm filter for future use.
A total of 18 male SD rats of 6-7 weeks of age were used for test. After the animal quarantine and acclimatization period, the animals were randomly divided into 6 groups according to their body weights measured before grouping, vehicle control group (saline) as well as example compounds groups, 3 animals/group. Using the above prepared solution, the animal was administered intravenously via the tail vein at a dosage of 30 mg/kg and a dosing volume of 2 mL/kg. The dosing volume for each animal was calculated according to the body weight. Administration was performed once daily for 5 consecutive days. After 2 h of administration on day 5, the animals were deeply anesthetized by intraperitoneal injection of sodium pentobarbital. […] The concentrations of UREA and CREA in the serum were detected using a biochemical analyzer. The percentage change of each example compound relative to the vehicle control group was calculated using the formula: %=(Concentration of example compound−Concentration of vehicle control group)/Concentration of vehicle control group.

Row | Substance | IC50 [3] | With tPA T1/2 [4] | Without tPA T1/2 [4] | also measured
1 | 5-FAM-Gly-N,N-Di(PEG2-Ile-Glu-Thr-Ala-Val-OH | – | – | – | Kd [1]: 0.0207 ± 0.00098 µM
2 | 5-FAM-labeled probe (5-FAM-Gly-N,N-Di(PEG2-Ile-Glu-Thr-Ala-Val-OH, molecular weight: 1867.8), or 5-FAM-Gly-N,N-Di(PEG2-Ile-Glu-Ser-Asp-Val-OH) (peptide) | – | – | – | Kd [2]: 0.0207 µM
3 | YGR(Me)2KKRR(Me)2QR(Me)2RRkLSSIESDV [Compound B1] | 7.7 µM | – | – | –
4 | YGR*KKRrQrRRkLSSIESDV [Compound G3] | 5.2 µM | 11.6 h | >33.33 h | –
5 | YGRKKRR*QRRRKLSSIESDV [Compound G5] | 5.23 µM | – | – | –
6 | YGRKKRRQR*RRKLSSIESDV [Compound G9] | 6.32 µM | – | – | –
7 | YGrKKRR*QrRRkLSSIESDV [Compound G7] | 3.96 µM | 12.65 h | >33.33 h | –
8 | YGrKKRrQR(Me)RRkLSSIESDV [Compound H3] | 13.5 µM | >33.33 h | >33.33 h | CREA, percentage change compared to vehicle control group [5]: 46.2%; UREA, percentage change compared to vehicle control group [5]: 46.4%
9 | YGrKKRrQR*RRkLSSIESDV [Compound G11] | – | 8.17 h | >33.33 h | –
